Assay results taken from ChEMBL document CHEMBL4118228, “Chemical space screening around Phe3 in opioid peptides: Modulating µ versus δ agonism by Suzuki-Miyaura cross-couplings” (Bioorg Med Chem Lett, 2018).

By UniProt entry, the sequences of proteins in these tests, tags left out.
UniProt P33533, whole entry: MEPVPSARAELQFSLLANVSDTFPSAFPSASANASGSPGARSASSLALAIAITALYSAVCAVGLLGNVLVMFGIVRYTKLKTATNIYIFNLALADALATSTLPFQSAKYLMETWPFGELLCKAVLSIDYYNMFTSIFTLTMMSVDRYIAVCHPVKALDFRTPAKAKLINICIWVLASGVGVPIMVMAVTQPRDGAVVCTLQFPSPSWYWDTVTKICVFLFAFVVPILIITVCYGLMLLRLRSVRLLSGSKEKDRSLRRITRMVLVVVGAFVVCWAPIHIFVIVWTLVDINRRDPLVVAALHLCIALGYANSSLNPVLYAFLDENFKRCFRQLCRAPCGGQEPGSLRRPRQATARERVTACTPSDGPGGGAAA

Biological target: Delta-type opioid receptor (Rattus norvegicus, UniProt P33533)
Test: Agonist activity at rat delta-opioid receptor expressed in HEK293 cells co-expressing Rluc2-EPAC-GFP10 biosenser assessed as inhibition of forskolin-induced cAMP level after 10 mins by fluorescence based assay
Assay type: functional, cell-based

C[C@@H](NC(=O)[C@@H](N)Cc1ccc(O)cc1)C(=O)NCC(=O)N(C)[C@@H](Cc1ccccc1)C(=O)NCCO [DAMGO]
EC50: 49 nM
